Among the data in PubChem BioAssay AID828 (The Scripps Research Institute Molecular Screening Center, 2007) are inhibition values, retold here.

Protein sequences, listed by entry. Tags and fused reporters are not part of them.
UniProt O43603, whole entry: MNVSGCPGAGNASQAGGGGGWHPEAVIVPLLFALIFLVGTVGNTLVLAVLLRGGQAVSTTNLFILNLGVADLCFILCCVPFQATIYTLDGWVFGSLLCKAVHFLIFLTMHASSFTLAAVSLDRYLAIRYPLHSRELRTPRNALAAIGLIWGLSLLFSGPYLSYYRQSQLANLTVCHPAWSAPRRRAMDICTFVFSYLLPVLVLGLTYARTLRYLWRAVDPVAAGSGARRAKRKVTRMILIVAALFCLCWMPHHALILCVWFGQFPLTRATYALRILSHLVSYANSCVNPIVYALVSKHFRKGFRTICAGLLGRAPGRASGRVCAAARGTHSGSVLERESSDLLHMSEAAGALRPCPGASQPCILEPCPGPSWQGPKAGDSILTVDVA

Broadly, the inhibition is the relative decrease from the control value, in per cent.

The entries are a selection whose mix differs from that of the whole data set. Some tests of the compounds listed are not included; inactive here does not mean inactive elsewhere. Calls of active or inactive are those of the source. No stated cut-off is given here; in the data, active means inhibition above about 27%; inactive means the rest.

This test deals with Galanin receptor type 2 (Homo sapiens) (UniProt O43603). Nature of the test: blockers of human galanin receptor 2 – cell-based, primary screen (AID 828).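 Further: cells stimulated with galanin 1-16 at roughly its EC80; 0% = agonist challenge control and 100% = basal control without agonist.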 As to conditions: GALR2-expressing cells, antagonist mode; at 4 µM; active compounds read high.
Consider `CC(C)N1C(=O)CC2(CCN(CCOC(=O)C(O)(c3ccccc3)c3ccccc3)CC2)C1=O`, for which the inhibition was inactive: -5.5%.

On to `CCN1CCCC(OC(=O)C2(O)c3ccccc3C=Cc3ccccc32)C1` (stereo not given), for which the inhibition was inactive: -3.44%.

Regarding `CN(C)C1CCCC1OC(=O)C(O)(c1ccccc1)c1ccccc1` (stereo not given), the inhibition is inactive: 4.38%. For `CN(C)c1cccc(C(=O)NCC2(N(C)C)CCCCC2)c1`, the inhibition is inactive: 1.02%.

For `O=C(OC1CN2CCC1CC2)C(CO)(c1ccccc1)c1ccccc1` (stereo not given), the inhibition is inactive: 13.9%.
